Measurements taken from patent US20190352367A1.

Biological target: NANOG, endogenous in breast cell lysates (UniProt Q9H9S0)
Experiment: cell-based or functional assay

sphere initiation frequency (limiting dilution sphere-forming assay, MDA-MB-231 parental cells) | Substance
77.8 1 in n cells | GFP-tagged D66H mutant Cx26 (from UniProt P29033 1-226)
78.4 1 in n cells | GFP-tagged G59A mutant Cx26 (from UniProt P29033 1-226)
31.6 1 in n cells | GFP-tagged wild-type Cx26 (from UniProt P29033 1-226)
